# ChEMBL document CHEMBL2016545, “Discovery of S-777469: an orally available CB2 agonist as an antipruritic agent” (Bioorg Med Chem Lett, 2012)
# Organism: Homo sapiens
# Assay: Selectivity ratio of Ki for human CB1 receptor to Ki for human CB2 receptor
smiles,measurement,value
COCCn1c(C)c(C)s/c1=N\C(=O)C1C(C)(C)C1(C)C,Ratio Ki,425
